Results on two compounds are retold here after US7196110B2, “N-substituted tricyclic 3-aminopyrazoles as inhibitors for the treatment of cell proliferative disorders” (Janssen Phamaceutica N.V., priority 2002, dated 2007).

Amino acid sequences for entries named in this document (tags omitted). A change or cut given only in a name is not applied to a line headed by its entry.
UniProt P09619: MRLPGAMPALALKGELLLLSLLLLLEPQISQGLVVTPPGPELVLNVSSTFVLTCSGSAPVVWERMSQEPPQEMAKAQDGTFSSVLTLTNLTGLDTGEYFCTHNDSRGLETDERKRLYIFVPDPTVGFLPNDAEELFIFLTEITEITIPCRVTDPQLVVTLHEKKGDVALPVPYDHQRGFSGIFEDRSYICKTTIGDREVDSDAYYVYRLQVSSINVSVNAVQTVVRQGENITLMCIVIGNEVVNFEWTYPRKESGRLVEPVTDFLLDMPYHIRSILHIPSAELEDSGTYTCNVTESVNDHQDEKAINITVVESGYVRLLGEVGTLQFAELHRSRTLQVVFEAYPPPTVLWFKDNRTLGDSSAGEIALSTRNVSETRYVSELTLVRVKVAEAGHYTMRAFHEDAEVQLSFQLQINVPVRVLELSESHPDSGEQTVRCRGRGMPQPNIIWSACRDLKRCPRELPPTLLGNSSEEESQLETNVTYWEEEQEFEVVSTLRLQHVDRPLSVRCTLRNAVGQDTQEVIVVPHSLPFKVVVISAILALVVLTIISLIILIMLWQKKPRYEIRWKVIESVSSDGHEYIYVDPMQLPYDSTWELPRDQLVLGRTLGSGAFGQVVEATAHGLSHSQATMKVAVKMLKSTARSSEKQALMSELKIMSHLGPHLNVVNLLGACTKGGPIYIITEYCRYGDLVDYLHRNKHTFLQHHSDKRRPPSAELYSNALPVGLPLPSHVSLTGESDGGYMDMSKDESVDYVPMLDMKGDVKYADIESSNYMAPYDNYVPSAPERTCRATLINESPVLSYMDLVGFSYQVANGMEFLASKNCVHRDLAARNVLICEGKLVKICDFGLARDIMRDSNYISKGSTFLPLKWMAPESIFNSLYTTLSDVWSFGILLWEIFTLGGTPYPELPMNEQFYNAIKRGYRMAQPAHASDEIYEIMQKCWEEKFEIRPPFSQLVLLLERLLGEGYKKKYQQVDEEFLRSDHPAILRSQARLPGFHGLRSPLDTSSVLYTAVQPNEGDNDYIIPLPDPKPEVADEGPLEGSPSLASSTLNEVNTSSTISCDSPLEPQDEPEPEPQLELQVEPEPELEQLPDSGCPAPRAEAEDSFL

This test concerns the target T1, PDGF-receptor beta enzyme comprising the tyrosine kinase domain (Homo sapiens, UniProt P09619).
T1 construct: from amino acid 545 to 1106 of GenBank Access NO: AAA36427
Briefly: Inhibition of PDGF-receptor kinase activity (cell-free, PLC1 peptide, 33P Flashplate). It counts as biochemical. Particulars: PDGF-R kinase activity.

`COc1cccc(Nc2[nH]nc3c2Cc2cc(OC)c(OC)cc2-3)c1` [Compound 29, (6,7-Dimethoxy-2,4-dihydro-indeno[1,2-c]pyrazol-3-yl)-(3-methoxy-phenyl)-amine] displayed an IC50 of 10 nM.
Then `COc1cc2c(cc1OC)-c1n[nH]c(Nc3cccc(C)c3)c1C2` [Compound 32, (6,7-Dimethoxy-2,4-dihydro-indeno[1,2-c]pyrazol-3-yl)-m-tolyl-amine], with 12 nM.
